These are literature values, as cited in patent US9629872B2, “Sodium thiosulphate for the treatment of ectopic calcifications” (Institut National de la Sante et de la Recherche Medicale …, priority 2012, dated 2017).

For the data set the following is noted: at 20° C.; cited from earlier work.

On to Sodium thiosulfate pentahydrate, for which the solubility in water is 780 mg/mL.
